Assay: Acridine orange (AO) dye displacement competitive binding assay
Conditions: unmodified CB[7] 6 μM, one-site competitive binding model, H2O, read-out: equilibrium dissociation constant / binding affinity to CB[7]
Method: NOVOLOG® samples were diluted to concentrations of 0, 0.01, 0.1, 0.3, 0.5, 1, 1.5, 2, 3, 4 μM in H2O. […] Samples were incubated overnight in light-free conditions, and fluorescent spectra were collected on an BioTek SynergyH1 microplate reader, exciting at 485 nm and collecting the resulting fluorescent spectra from 495 to 650 nm.

Kd: 38 µM
SMILES: CC[C@H](C)[C@H](NC(=O)[C@@H]1CCCN1C(=O)CNC(=O)[C@H](Cc1ccccc1)NC(=O)[C@H](CC(N)=O)NC(=O)[C@H](CC(N)=O)NC(=O)[C@H](CO)NC(=O)[C@H](CO)NC(=O)[C@H](Cc1c[nH]cn1)NC(=O)[C@@H](NC(=O)[C@H](CC(C)C)NC(=O)[C@H](Cc1ccccc1)NC(=O)[C@H](CC(N)=O)NC(=O)[C@H](C)NC(=O)[C@H](CC(C)C)NC(=O)[C@H](CCCNC(=N)N)NC(=O)[C@H](CCC(N)=O)NC(=O)[C@@H](NC(=O)[C@H](C)NC(=O)[C@@H]1CSSC[C@H](NC(=O)[C@@H](N)CCCCN)C(=O)N[C@@H](CC(N)=O)C(=O)N[C@@H]([C@@H](C)O)C(=O)N[C@@H](C)C(=O)N[C@@H]([C@@H](C)O)C(=O)N1)[C@@H](C)O)C(C)C)C(=O)N[C@@H](CC(C)C)C(=O)N1CCC[C@H]1C(=O)N1CCC[C@H]1C(=O)N[C@H](C(=O)N[C@@H](CC(N)=O)C(=O)N[C@H](C(=O)NCC(=O)N[C@@H](CO)C(=O)N[C@@H](CC(N)=O)C(=O)N[C@H](C(=O)N[C@@H](Cc1ccc(O)cc1)C(N)=O)[C@@H](C)O)C(C)C)[C@@H](C)O [pramlintide]

Reference: patent US20220125886A1, “CO-FORMULATIONS OF AMYLIN ANALOGUES WITH INSULIN ANALOGUES FOR TREATMENT OF DIABETES” (The Board of Trustees of the Leland Stanford Junior …, priority 2019, published 2022)
